Source: US20220411759A1, “ENDOCRINE DIFFERENTIATION-INDUCING MOLECULE” (President and Fellows of Harvard College, priority 2019, published 2022)

Key:
[1] = system: differentiating hESC clusters; experiment: Nanostring mRNA expression of endocrine, hormone and progenitor markers in differentiating clusters; type: cell-based, human; conditions: added at stage 4; relative to control
Method: (§1) Factors were tested in either 6-well plates placed on a rocker, or in Biott ABLE Bioreactors (Stemgent). IWR1-endo (Sigma-Aldrich) was used at 5 μM. XAV939 (Santa Cruz, SC-296704A) was used at 5 μM. Recombinant human BMP2/BMP7 (Thermo-Fisher) was used at […]. when added during stage 4, CHIR99021 was used at a concentration of […].
Cells were collected for RNA extraction in RLT Lysis Buffer (Qiagen) and frozen at −80° C. RNA was extracted using the RNeasy Mini Kit (Qiagen), according the manufacturer's instructions—including DNA digestion, and 100 ng of RNA was used for each reaction. Nanostring set up was performed according to the protocol for the nCounter XT Gene Expression Assay. Data was analyzed in the nSolver 2.5 Software. All genes were normalized to housekeeping genes (ITCH, RPL15, RPL19, TCEB1, UBE2D3). Analysis of changes in gene expression of markers for endocrine and progenitor cells was done using R.

[2] = system: human induced pluripotent stem cells (hiPSCs) from line 1016; experiment: Flow cytometry of cell proportions during directed differentiation of hiPSC-1016; type: cell-based; conditions: stage 4
Method: (§2) HUES8 ([…]) human embryonic stem cells and human induced pluripotent stem cells (hiPSCs) from line 1016 (person) were obtained from the Human Embryonic Stem Cell Facility and iPS Core Facility of the Harvard Stem Cell Institute. Cells were differentiated into beta like cells in suspension as described previously^37. Briefly, 150Xe^6 cells were suspended in 300 ml of supplemented mTeSR1 and grown in spinning flasks (70 rpm, 37° C., 5% CO2) for 48 hours prior to the beginning of a stepwise differentiation protocol:
as §1
(§3) Differentiated cell clusters were dispersed into single-cell suspension by incubation in TrypLE Express at 37° C., quenched with PBS+2% FBS, fixed with 4% PFA for 30 min at 4° C., washed once in PBS, and resuspended in PBS+2% FBS. Staining was done in 96-well plates. Cells were incubated in blocking buffer (PBS+0.1% Triton X-100+5% donkey serum) at 4° C. for 30-60 min. […] Cells were then washed three times in PBS+5% Donkey serum and analyzed using either the BD Accuri c6 flow cytometer or the LSR-II flow cytometer (BD Biosciences). […]

[3] = system: HUES8 human embryonic stem cells; experiment: Flow cytometry of cell proportions during directed differentiation of hESCs into β cells; type: cell-based
Method: as §2
Stage 4—5 days in S3 medium supplemented with KGF (50 ng/ml), Sant1 (0.25 μM) and retinoic acid (0.1 μM).
Stage 5—7 days in BE5 medium supplemented with Beta Cellulin (20 ng/ml). XXI (1 μM), Alk5ill(10 μM) and T3 (1 μM). Sant1 (0.25 μM) was added in the first three days, and retinoic acid was added at 0.1 μM in the first three days, then at 0.025 μM.
Stage 6—CMRLS medium supplemented with Alk5iII (10 μM) and T3 (1 μM).
In many of the experiments following cell collection for sc-RNAseq, the protocol was slightly modified to add Y-27632 (10 μM) at stage 3-5, and ActivinA (5 ng/ml) in stage 4. In some cases, an extra day at stage 4 was also added. For the presented functional and flow cytometry analysis in stage 6, CMRLS based media was replaced with S3 medium, without supplements.
as §1
as §3, with “plates.” for “plates. Cells were incubated in blocking buffer (PBS+0.1% Triton X-100+5% donkey serum) at 4° C. for 30-60 min.”

[4] = factor added during stage 4, flow cytometry at end of stage 4, vs control

B1: BMP2-7: recombinant human BMP2/BMP-7 heterodimer, BMP pathway activator (protein, UniProt P12643 283-396; P18075 293-431, looked up)
Bone morphogenetic protein 2: QAKHKQRKRLKSSCKRHPLYVDFSDVGWNDWIVAPPGYHAFYCHGECPFPLADHLNSTNHAIVQTLVNSVNSKIPKACCVPTELSAISMLYLDENEKVVLKNYQDMVVEGCGCR
Bone morphogenetic protein 7: STGSKQRSQNRSKTPKNQEALRMANVAENSSSDQRQACKKHELYVSFRDLGWQDWIIAPEGYAAYYCEGECAFPLNSYMNATNHAIVQTLVHFINPETVPKPCCAPTQLNAISVLYFDDSSNVILKKYRNMVVRACGCH
modifications: heterodimer
[1]
  expression of endocrine genes: downregulation
[2]
  proportion of hiPSC-1016 derived PDX+NKX6.1+ cells: increases
[3]; [4]
  number / proportion of CHGA+ endocrine cells: nearly twofold decrease
  number / proportion of PDX1+/NKX6.1+ progenitors: increased by more than twofold
[3]; factor added during stage 5
  effect on CHGA+ endocrine cells and PDX1+/NKX6.1+ progenitors like that at stage 4: not observed
